Measurements taken from ChEMBL document CHEMBL3430320, “Prediction of Thorough QT study results using action potential simulations based on ion channel screens” (J Pharmacol Toxicol Methods, 2014).

By UniProt entry, the sequences of proteins in these tests, tags left out. Where a name states a change or a piece, a line headed by the entry shows the natural chain unless it says otherwise.
UniProt Q12809: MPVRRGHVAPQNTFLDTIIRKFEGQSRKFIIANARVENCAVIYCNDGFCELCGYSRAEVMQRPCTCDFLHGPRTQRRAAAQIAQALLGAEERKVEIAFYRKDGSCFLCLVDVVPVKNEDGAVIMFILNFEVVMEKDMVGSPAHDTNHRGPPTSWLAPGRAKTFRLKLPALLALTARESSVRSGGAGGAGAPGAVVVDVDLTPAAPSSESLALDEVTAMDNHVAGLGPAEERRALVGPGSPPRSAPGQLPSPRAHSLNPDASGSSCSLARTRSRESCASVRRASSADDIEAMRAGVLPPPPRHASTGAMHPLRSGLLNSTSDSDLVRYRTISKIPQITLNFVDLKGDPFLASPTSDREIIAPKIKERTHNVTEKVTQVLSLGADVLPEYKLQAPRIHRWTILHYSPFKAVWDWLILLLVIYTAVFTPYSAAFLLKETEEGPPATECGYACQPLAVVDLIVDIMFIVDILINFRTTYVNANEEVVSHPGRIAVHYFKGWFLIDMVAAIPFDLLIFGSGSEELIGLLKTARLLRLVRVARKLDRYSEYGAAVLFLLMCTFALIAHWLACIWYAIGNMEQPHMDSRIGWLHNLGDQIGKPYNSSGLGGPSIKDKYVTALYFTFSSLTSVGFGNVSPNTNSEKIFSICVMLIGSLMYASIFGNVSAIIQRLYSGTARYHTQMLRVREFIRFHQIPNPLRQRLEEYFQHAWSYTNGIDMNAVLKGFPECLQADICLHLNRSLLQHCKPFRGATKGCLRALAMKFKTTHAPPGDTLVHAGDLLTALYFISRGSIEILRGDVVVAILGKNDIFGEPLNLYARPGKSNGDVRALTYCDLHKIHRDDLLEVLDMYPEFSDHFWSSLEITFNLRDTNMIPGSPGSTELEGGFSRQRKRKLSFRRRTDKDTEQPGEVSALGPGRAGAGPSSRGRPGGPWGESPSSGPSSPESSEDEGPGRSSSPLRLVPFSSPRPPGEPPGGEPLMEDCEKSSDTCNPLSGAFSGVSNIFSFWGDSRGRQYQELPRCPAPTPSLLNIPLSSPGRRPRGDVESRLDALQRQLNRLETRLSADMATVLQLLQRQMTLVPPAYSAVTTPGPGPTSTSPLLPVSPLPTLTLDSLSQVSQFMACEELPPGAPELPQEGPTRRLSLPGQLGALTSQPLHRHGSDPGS

Target: Voltage-gated inwardly rectifying potassium channel KCNH2 (Homo sapiens, UniProt Q12809)
Assay: Inhibition of rapid delayed inward rectifying potassium current (IKr) in Chinese hamster ovary (CHO) K1 cells stably expressing hERG measured using IonWorks Quattro automated patch clamp platform
Assay type: functional, cell-based, Cricetulus griseus

N[C@@H](CC(=O)N1CCn2c(nnc2C(F)(F)F)C1)Cc1cc(F)c(F)cc1F [SITAGLIPTIN]
pIC50: 3
